Measurements taken from paper PMC9088906 (ACS Omega, 2022).

Amino acid sequences for entries named in this document (tags omitted). Residues count along the entry.
UniProt P53779, 40-402: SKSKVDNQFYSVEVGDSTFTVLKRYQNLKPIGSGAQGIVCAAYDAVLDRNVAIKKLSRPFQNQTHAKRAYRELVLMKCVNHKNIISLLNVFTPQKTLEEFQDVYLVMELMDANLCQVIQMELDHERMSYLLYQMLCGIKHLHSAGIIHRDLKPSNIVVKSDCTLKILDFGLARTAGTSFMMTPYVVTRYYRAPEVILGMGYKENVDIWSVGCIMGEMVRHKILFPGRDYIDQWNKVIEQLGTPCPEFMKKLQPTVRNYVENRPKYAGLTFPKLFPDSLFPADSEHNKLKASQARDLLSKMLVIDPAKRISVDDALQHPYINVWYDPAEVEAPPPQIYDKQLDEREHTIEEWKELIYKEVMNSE

Molecular target: human JNK3 (Homo sapiens, UniProt P53779)
Experiment: Fluorescence thermal shift
Format: binding

- maximum Tm shift (500 μM ligand, protein concentration 2 μM): ~12.7 °C
- ΔTm50 (HTS–FTS, compound concentration 200 μM, JNK3 2 μM, mean n = 3): 7.86 °C
Substance: SP600125
